Exposed polarity of cyclic peptides

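Conditions beyond the assay type are not listed; see the original paper. The list need not hold all peptides of the study.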

EPSA reports exposed polarity as measured by chromatography; lower is less polar.

compound,EPSA (Å2)
CC(C)C[C@@H]1NC(=O)[C@H](Cc2ccc(O)cc2)N(C)C(=O)[C@H]2CCCN2C(=O)[C@H](CC(C)C)NC(=O)[C@H](CC(C)C)N(C)C(=O)[C@@H](CC(C)C)N(C)C1=O,77
C/C1=C\[C@@H](CC(C)C)NC(=O)[C@@H]2CCCN2C(=O)[C@H](CC(C)C)N(C)C(=O)C[C@@H](O)[C@@H](CC(C)C)NC(=O)[C@H](CC(C)C)N(C)C(=O)[C@H](CC(C)C)N(C)C1=O,56
CC(C)C[C@@H]1NC(=O)[C@H]2CCCN2C(=O)[C@H](CC(C)C)N(C)C(=O)C[C@H](O)[C@H](CC(C)C)NC(=O)[C@H](CC(C)C)N(C)C(=O)[C@H](CC(C)C)N(C)C(=O)C[C@@H]1O,61
C/C1=C\[C@@H](CC(C)C)NC(=O)[C@@H]2CCCN2C(=O)[C@@H](CC(C)C)N(C)C(=O)C[C@H](O)[C@H](CC(C)C)NC(=O)[C@@H](CC(C)C)N(C)C(=O)[C@@H](CC(C)C)N(C)C1=O,57
CC(C)C[C@@H]1NC(=O)[C@H](CC(C)C)N(C)C(=O)[C@H](CC(C)C)N(C)C(=O)C[C@H](O)[C@H](CC(C)C)NC(=O)[C@@H]2CCCN2C(=O)[C@H](CC(C)C)N(C)C(=O)C[C@@H]1O,55
CC(C)C[C@@H]1NC(=O)[C@H]2CCCN2C(=O)[C@@H](CC(C)C)N(C)C(=O)C[C@@H](O)[C@@H](CC(C)C)NC(=O)[C@@H](CC(C)C)N(C)C(=O)[C@@H](CC(C)C)N(C)C(=O)C[C@@H]1O,61
CC(C)C[C@@H]1NC(=O)[C@H]2CCCN2C(=O)[C@H](CC(C)C)N(C)C(=O)C[C@H](O)[C@H](CC(C)C)NC(=O)[C@H](CC(C)C)N(C)C(=O)[C@@H](CC(C)C)N(C)C(=O)C[C@@H]1O,57
CC(C)C[C@@H]1NC(=O)[C@@H](CC(C)C)N(C)C(=O)[C@H](CC(C)C)N(C)C(=O)C[C@H](O)[C@H](CC(C)C)NC(=O)[C@H]2CCCN2C(=O)[C@H](CC(C)C)N(C)C(=O)C[C@@H]1O,62
CC(C)C[C@@H]1NC(=O)[C@H]2CCCN2C(=O)[C@H](CC(C)C)N(C)C(=O)C[C@@H](O)[C@@H](CC(C)C)NC(=O)[C@H](CC(C)C)N(C)C(=O)[C@H](CC(C)C)N(C)C(=O)C[C@@H]1O,57

Collected by the curators of CycPeptMPDB (Li et al. 2023) from Bockus et al. 2015, doi:10.1021/acs.jmedchem.5b00128.